From PubChem BioAssay AID493244 (The Scripps Research Institute Molecular Screening Center, 2011)
This is a selection; strong and weak results do not stand in their true shares. Active and inactive are the calls of the source.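 How the source made its calls: active means inhibition above the mean inhibition of all tested compounds plus 3 SD (cut at about 17% in these data); inactive means the rest.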

Biological target: Troponin I, cardiac muscle (Homo sapiens) + Troponin T, cardiac muscle (Homo sapiens) + Troponin C, slow skeletal and cardiac muscles (Homo sapiens) (UniProt P19429+P45379+P63316)
Assay: cardiac RTF calcium sensitivity inhibitors, primary screen, biochemical, IANBD-TnC fluorescence, EC70 calcium (AID 493244);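 further: assay run at fixed EC70 calcium of 1.6 mM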
Settings: IANBD-labeled cardiac RTF, Ca2+ fluorescence; at 7.15 µM; hits give high values

| SMILES | inhibition |
| --- | --- |
| O=C(NC1CCS(=O)(=O)C1)NP(=S)(Oc1ccccc1)Oc1ccccc1 (stereo not drawn) | inactive: -4.1% |
| CCNC(=S)/N=C(\N)N[N+](=O)[O-] | inactive: -0.44% |
| O=P1(N(CCCl)CCCl)OCCC2CCCCN21 (stereo not drawn) | inactive: -6.02% |
| O=C(OC1CN2CCC1CC2)c1ccccc1 (stereo not drawn) | inactive: -1.69% |
| CCC(=O)N1C2C3N(C(=O)CC)C1C1N(C(=O)CC)C(C(N1C(=O)CC)N3C(=O)CC)N2C(=O)CC | inactive: -5.13% |
| COC(=O)c1cc2c(s1)N=C(c1ccccc1)N(C)P2(=O)N1CCOCC1 (stereo not drawn) | inactive: -11.6% |
| CC(=O)NC(SC(=S)N(CC(C)C)CC(C)C)C(Cl)(Cl)Cl (stereo not drawn) | inactive: -1.36% |
| Cc1ccc(OP(=O)(Nc2ccccn2)Oc2ccc(C)cc2)cc1 | inactive: -4.58% |
| Cc1ccccc1OP(=O)(Nc1ccccn1)Oc1ccccc1C | inactive: 3.06% |
| CC(NC(=O)COC(=O)C(O)(c1ccccc1)c1ccccc1)c1ccccc1 (stereo not drawn) | inactive: -13.4% |
| CN(C)C(=O)Oc1noc2ccccc12 | inactive: 3.35% |
| O=c1c2cc([N+](=O)[O-])ccc2[nH]c2c([N+](=O)[O-])cc([N+](=O)[O-])cc12 | inactive: -0.63% |
| CCOP1(=S)c2c(C)nn(CCC#N)c2N=C(c2ccccc2F)N1C (stereo not drawn) | inactive: 1.35% |
| O=P(Nc1nccs1)(c1ccccc1)c1nc2ccccc2s1 (stereo not drawn) | inactive: -1.72% |
| O=P(Nc1nccs1)(Oc1ccccc1)Oc1ccccc1 | inactive: -0.14% |
| CS(=O)(=O)c1cc([N+](=O)[O-])c2no[n+]([O-])c2c1 | inactive: -21.7% |
| O=C(O)COc1ccc([As](=O)(O)O)cc1[N+](=O)[O-] | inactive: -5.44% |
| Nc1ccccc1[As](=O)(O)c1ccccc1 | inactive: 2.63% |
| NC(=O)Nc1ccc([As](=O)(O)O)cc1 | inactive: 2.02% |
| N#CCCN(C(=O)COC(=O)C(O)(c1ccccc1)c1ccccc1)c1ccc(F)cc1 | inactive: -2.31% |
| CCOP1(=S)c2c(C)nn(CCC#N)c2N=C(c2ccc(F)cc2)N1C (stereo not drawn) | inactive: -14.6% |
| CN(C(=O)Cc1ccccc1)[C@@H]1CC[C@]2(CCCO2)C[C@H]1N1CCCC1 | inactive: 3.59% |
| CN(C)C(=O)c1cc([N+](=O)[O-])cc2c1-c1c(cc([N+](=O)[O-])cc1[N+](=O)[O-])C2=O | inactive: -4.92% |
| O=[N+]([O-])c1ccc2c(c1)nnn2O | inactive: 1.07% |

| SMILES | inhibition |
| --- | --- |
| CN(C(=O)Cc1ccc(Cl)c(Cl)c1)[C@H]1CC[C@@]2(CCCO2)C[C@@H]1N1CCCC1 | inactive: 13.2% |
| O=C(OC1CN2CCC1CC2)c1ccc(Cl)cc1 (stereo not drawn) | inactive: -4.07% |
| COc1cc(C(=O)NCC2(N3CCOCC3)CCCCC2)cc(Cl)c1OC(C)C | inactive: 13.8% |
| O=[As](O)(O)c1cccnc1 | inactive: 1.11% |
| CS(=O)(=O)c1ccc(Cl)c(NC(=O)COC(=O)C(O)(c2ccccc2)c2ccccc2)c1 | inactive: 0.19% |
| O=[As](O)(c1cccc(O)c1)c1cccc(O)c1 | inactive: 0.22% |
| Cc1cccc(OCC(=O)OC2CN3CCC2CC3)c1 (stereo not drawn) | inactive: 0.13% |
| Cc1ccc(NCCc2c([N+](=O)[O-])cc([N+](=O)[O-])cc2[N+](=O)[O-])cc1 | inactive: -2.66% |
| Nc1cccc2c([As](=O)(O)O)cccc12 | inactive: -18.6% |
| CCCOP(=S)(Nc1nc(N)cc(=O)[nH]1)OCCC | inactive: 1.2% |
| COc1cc(C2NCCC3(OCCO3)C2(C)C)cc(OC)c1OC (stereo not drawn) | inactive: 0.08% |
| CCOP(=O)(Nc1cccc2ccccc12)OCC | inactive: -5.95% |
| CCC1=CC2Cc3nc4ccc(Cl)cc4c(N)c3C(C1)C2 (stereo not drawn) | inactive: -3.51% |
| O=P1(Nc2ccccn2)COc2ccccc2OC1 | inactive: 9.33% |
| CCOP(=O)(NC(=NC(C)c1ccccc1)NC(C)c1ccccc1)OCC (stereo not drawn) | inactive: -10.1% |
| CCOP(=O)(Nc1ccc(C)cn1)OCC | inactive: -7.8% |
| Clc1n[nH]nc1-c1nn[nH][15n]1 | inactive: 7.63% |
| CC(C)(C)C(=O)NC(Sc1ncccn1)C(Cl)(Cl)Cl (stereo not drawn) | inactive: 4.84% |
| COc1ccccc1CNC(=O)COC(=O)C(O)(c1ccccc1)c1ccccc1 | inactive: 3.68% |
| CN(C(=O)Cc1ccc(Cl)c(Cl)c1)[C@@H]1CCCC[C@H]1N1CCCC1 | inactive: -3.8% |
| CC(C)/C=N\N=C(\N)N[N+](=O)[O-] | inactive: -12.9% |
| CC1(CBr)Cn2c(nc3ccccc3c2=O)S1 (stereo not drawn) | inactive: -7.26% |
| Cc1nn(-c2ccccc2)c2c1P(=O)(N1CCOCC1)N(C)C(c1ccccc1)=N2 (stereo not drawn) | inactive: -4.6% |
| Cc1ccc(C(=O)OC2CN3CCC2CC3)cc1 (stereo not drawn) | inactive: 0.74% |

| SMILES | inhibition |
| --- | --- |
| CC1CCC(C(C)C)C(OP(=O)(Nc2ccccn2)c2ccccc2)C1 (stereo not drawn) | inactive: -4.5% |
| CN(C)C1(CNC(=O)c2ccc(S(C)(=O)=O)cc2)CCCCC1 | inactive: 4.36% |
| O=C(/C=C/c1ccccc1)OC1CN2CCC1CC2 (stereo not drawn) | inactive: -7.74% |
| CCCC1OP(=O)(Nc2ccccc2)OCC1CC (stereo not drawn) | inactive: 0.99% |
| O=P1(Nc2ncccn2)COc2ccccc2OC1 | inactive: -11.3% |
| Nc1cccc([As](=O)(O)c2ccccc2)c1 | inactive: 9.76% |
| NS(=O)(=O)c1cccc(NC(=O)COC(=O)C(O)(c2ccccc2)c2ccccc2)c1 | inactive: -3.9% |
| O=P1(Nc2ccc(Br)cn2)COc2ccccc2OC1 | inactive: -1.93% |
| Cc1ccc(OCC(=O)OC2CN3CCC2CC3)cc1 (stereo not drawn) | inactive: -14.8% |
| O=[As](O)(c1cccs1)c1cccs1 | inactive: -11.9% |
| CCOC(=O)Nc1ccc([As](=O)(O)O)c(O)c1 | inactive: -12.2% |
| CC1CCNP(=O)(N(CCCl)CCCl)O1 (stereo not drawn) | inactive: -1.86% |
| CCCCOc1ccc(C(=O)NCC2(N3CCCCC3)CCCCC2)cc1OC | inactive: 5.74% |
| Cc1cc(SC(NC(=O)c2ccccc2)C(Cl)(Cl)Cl)nc(C(C)C)n1 (stereo not drawn) | inactive: -17.9% |
| CCOC(=O)Nc1cccc([As](=O)(O)O)c1 | inactive: 2.89% |
| Cc1cc(SC(NC=O)C(Cl)(Cl)Cl)ncn1 (stereo not drawn) | inactive: 8.07% |
| O=P(Nc1ccccn1)(c1cccc2ccccc12)c1cccc2ccccc12 | inactive: 1.61% |
| O=[N+]([O-])c1ccc(Nc2ccc(Oc3ccc([N+](=O)[O-])cc3[N+](=O)[O-])cc2)c([N+](=O)[O-])c1 | inactive: -6.85% |
| COP1(=S)c2c(C)nn(CCC#N)c2N=C(c2ccc(F)cc2)N1C (stereo not drawn) | inactive: -8.3% |
| O=C(COc1ccccc1)OC1CN2CCC1CC2 (stereo not drawn) | inactive: -7.02% |
| O=C(Nc1ccncc1[N+](=O)[O-])c1ccc([N+](=O)[O-])cc1[N+](=O)[O-] | inactive: 2.19% |
| O=C(OC1CN2CCC1CC2)c1cccc([N+](=O)[O-])c1 (stereo not drawn) | inactive: -0.92% |
| CCOC(=O)c1ccc(NC(=O)C(C)(CCl)SC)cc1 (stereo not drawn) | inactive: -2.94% |
| CCC(C)N(CC(C)C)C(=S)SC(NC(C)=O)C(Cl)(Cl)Cl (stereo not drawn) | inactive: 2.38% |

| SMILES | inhibition |
| --- | --- |
| Cc1c2c(nc3ccccc13)SC(C(Cl)Cl)C2 (stereo not drawn) | inactive: 6.85% |
| O=C(OC1CN2CCC1CC2)C12CC3CC(CC(C3)C1)C2 (stereo not drawn) | inactive: -1.57% |
| Cc1cc(=O)[nH]c(N[N+](=O)[O-])n1 | inactive: -3.47% |
| O=P1(N(CCCl)CCCl)Nc2ccccc2N1 | inactive: -0.41% |
| O=P1(N(CCCl)CCCl)OCCCN1CCCl (stereo not drawn) | inactive: -5.95% |
| COc1ccc2nc(NP(=O)(c3ccccc3)c3ccccc3)sc2c1 | inactive: 0.38% |
| COc1cc(I)ccc1[As](=O)(O)O | inactive: -10.8% |
| O=[N+]([O-])c1cc(Oc2ccc([N+](=O)[O-])cc2C(F)(F)F)cc([N+](=O)[O-])c1 | inactive: -5.19% |
| COc1ccc(N/C(=N/P(=O)(N2CCOCC2)N2CCOCC2)N2CCOCC2)cc1 | inactive: 1.68% |
| C[As](=O)(O)c1cccc(C(=O)O)c1 | inactive: -0.38% |
| O=[As](O)(c1ccc(O)cc1)c1ccccc1O | inactive: -10.6% |
| COc1cc(C(=O)NCC2(N3CCOCC3)CCCCC2)ccc1OCC(C)C | inactive: -1.59% |
| O=[N+]([O-])c1ccc(-c2cc([N+](=O)[O-])c(O)c([N+](=O)[O-])c2)cc1 | inactive: 3.35% |
| Cc1ccc(OP(=O)(Nc2ccc([N+](=O)[O-])cn2)Oc2ccc(C)cc2)cc1 | inactive: -0.23% |
| Cc1ccc2nc3c(c(C)c2c1)CC(C(Cl)Cl)S3 (stereo not drawn) | inactive: -27.7% |
| ClCCSc1nnc(-c2cccnc2)o1 | inactive: -2.96% |
| CC(C)c1ccc(OP(=O)(Nc2ccccn2)Oc2ccccc2F)cc1 (stereo not drawn) | inactive: -10.4% |
| COC(=O)C1(C)COP(=O)(N2CCCCCC2)OC1 (stereo not drawn) | inactive: -13.1% |
| CCN(CC)C(=S)SC(NC=O)C(Cl)(Cl)Cl (stereo not drawn) | inactive: -2.34% |
| O=C(OC1CN2CCC1CC2)c1cccc2[nH]cnc12 (stereo not drawn) | inactive: -4.09% |
| O=[N+]([O-])c1cc([N+](=O)[O-])c(-c2ccn[nH]2)s1 | inactive: -9.09% |
